From ChEMBL document CHEMBL5346881 (Eur J Med Chem, 2023)

Legend:
[1] = system: MCF7; assay: Growth inhibition of human MCF7 cells incubated for 48 hrs by MTT assay; assay type: functional
[2] = system: PC-3; assay: Antitumor activity against human PC-3 cells xenografted in CB17 SCID mouse assessed as tumor inhibition at 18 mg/kg, ip administered as single dose measured after 21 days; settings: time 21 day
[3] = Antiproliferative activity against human UWB1289 cells harboring BRCA1 assessed inhibition of cell growth incubated for 48 hrs by MTT assay
[4] = system: PC-3; assay: Growth inhibition of human PC-3 cells incubated for 48 hrs by MTT assay; assay type: functional
[5] = system: PC-3; assay: Antiproliferative activity against human PC-3 cells assessed inhibition of cell growth incubated for 48 hrs by MTT assay
[6] = Growth inhibition of human UWB1289 cells harboring BRCA1 incubated for 48 hrs by MTT assay
[7] = system: MCF7; assay: Antiproliferative activity against human MCF7 cells assessed inhibition of cell growth incubated for 48 hrs by MTT assay
[8] = system: SK-OV-3; assay: Growth inhibition of human SK-OV-3 cells incubated for 48 hrs by MTT assay; assay type: functional
[9] = system: MRC5; assay: Growth inhibition of human MRC5 cells incubated for 48 hrs by MTT assay; assay type: functional
[10] = system: MRC5; assay: Antiproliferative activity against human MRC5 cells assessed inhibition of cell growth incubated for 48 hrs by MTT assay
[11] = system: SK-OV-3; assay: Antiproliferative activity against human SK-OV-3 cells assessed inhibition of cell growth incubated for 48 hrs by MTT assay
[12] = system: SK-OV-3; assay: Antitumor activity against human SK-OV-3 cells xenografted in CB17 SCID mouse assessed as tumor inhibition at 18 mg/kg, ip administered as single dose measured after 11 days; settings: time 11 day
[13] = system: SK-OV-3; assay: Antitumor activity against human SK-OV-3 cells xenografted in CB17 SCID mouse assessed as reduction in tumor volume at 18 mg/kg, ip administered as single dose measured after 11 days (reference value: 790 +/- 65.6 mm3); settings: time 11 day
[14] = system: PC-3; assay: Antitumor activity against human PC-3 cells xenografted in CB17 SCID mouse assessed as reduction in tumor volume at 18 mg/kg, ip administered as single dose measured after 21 days (reference value: 683 +/- 47.3 mm3); settings: time 21 day

O=C(O)[C@@H](O)COc1ccc(N(CCCl)CCCl)cc1
GI50 [1]: > 100 µM | TGI [1]: > 100 µM | TGI [2]: 55% | IC50 [3]: > 100 µM | GI50 [4]: > 100 µM | TGI [4]: > 100 µM | IC50 [5]: > 100 µM | GI50 [6]: > 100 µM | TGI [6]: > 100 µM | IC50 [7]: > 100 µM | GI50 [8]: 24 µM | TGI [8]: > 100 µM | GI50 [9]: > 100 µM | TGI [9]: > 100 µM | IC50 [10]: > 100 µM | IC50 [11]: > 100 µM | TGI [12]: 19% | Activity [13]: 677 mm3 | Activity [14]: 368 mm3
